# Results: DBAASP
# System: Escherichia coli K-12
# Assay: ≥ marks a high value that may be exact or a test limit, other limits are often not marked, values filed in µg/mL are converted to µM
row,SMILES,MIC [µM]
1,CC(C)C[C@H](NC(=O)[C@H](CC(C)C)NC(=O)[C@H](CC(N)=O)NC(=O)[C@H](CCCCN)NC(=O)[C@H](CC(C)C)NC(=O)[C@H](CC(=O)O)NC(=O)[C@@H](N)C(C)C)C(=O)N[C@@H](CCCCN)C(=O)O [VDLKNLLK],≥ 128
2,CC(C)C[C@H](NC(=O)[C@H](CC(C)C)NC(=O)[C@H](CC(N)=O)NC(=O)[C@H](C)NC(=O)[C@H](CC(N)=O)NC(=O)[C@H](CC(C)C)NC(=O)[C@@H](N)C(C)C)C(=O)N[C@@H](CCCN=C(N)N)C(=O)O [VLNANLLR],≥ 128
3,CC(C)C[C@H](NC(=O)[C@H](CC(C)C)NC(=O)[C@H](CC(N)=O)NC(=O)[C@H](CCC(=O)O)NC(=O)[C@H](CC(N)=O)NC(=O)[C@H](CC(C)C)NC(=O)[C@@H](N)C(C)C)C(=O)N[C@@H](Cc1cnc[nH]1)C(=O)O [VLNENLLH],≥ 128
